Drawing on article PMC6019071, this text covers IC50 for three substances.

The assay addresses core CoREST complex LSD1/HDAC1/CoREST1 (LHC) (UniProt O60341). Description: other; inhibition of LHC peptide deacetylation.

Read-outs that look alike come from different tables or passages of the source.

Under “natural protein”, “semisynthetic histone H3 H3K4me2K14Hd (from UniProt P84233 2-136)” displayed an IC50 of 22 nM. Regarding “H3K9Hd containing nucleosome (146 bp mononucleosome with semisynthetic H3K4me2K9Hd)”, the IC50 stood at 630 nM. As for “H3K14Hd containing nucleosome (146 bp mononucleosome with semisynthetic H3K4me2K14Hd)”, the IC50 was 390 nM.
